This test is described as follows: triacylglycerol accumulation inhibitors, retest, confirmation, cell-based, single concentration, Nile Red fluorescence, H9c2 (AID 651629).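 Further: plate controls were DMSO only wells for no effect and Triacsin C treated wells for full effect.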 The conditions noted are these: H9c2 lipid accumulation, at 12.5 µM, active compounds read high, cells loaded with 200 µM oleic acid.

Structures are written as SMILES. Only a part is listed here, and it is no random draw. Activity calls are given as the source filed them.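 How the source made its calls: active means mean inhibition across replicates of 40% or more; inactive means mean inhibition below 40%.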

In the case of `CC(=O)NC(SC(=S)N(CC(C)C)CC(C)C)C(Cl)(Cl)Cl` (configuration not stated), the inhibition is active: 91.8%.
With `CCC(C)N(CC(C)C)C(=S)SC(NC(C)=O)C(Cl)(Cl)Cl` (configuration not stated) the figure was active: 90%.

Source of the values: PubChem BioAssay AID651629 (Sanford-Burnham Center for Chemical Genomics, 2012).
